PMC9937529, “Mechanism of activation and biased signaling in complement receptor C5aR1” (Cell Research, 2023)
Numbering of substitutions follows the chain as printed.

How the values were obtained:
Assay type in all cases: cell-based
[1] = molecular target: T1, C5aR1-WT (Homo sapiens, UniProt P21730); assay: C5aR1-Gi-mediated cAMP inhibition assay (GloSensor); conditions: HEK293, 2.5 μM forskolin, ligand 30 min RT, mean±SEM, n=6
T1 construct: expressed in transfected cells; host or cells: HEK293
T1 sequence (P21730 1-350): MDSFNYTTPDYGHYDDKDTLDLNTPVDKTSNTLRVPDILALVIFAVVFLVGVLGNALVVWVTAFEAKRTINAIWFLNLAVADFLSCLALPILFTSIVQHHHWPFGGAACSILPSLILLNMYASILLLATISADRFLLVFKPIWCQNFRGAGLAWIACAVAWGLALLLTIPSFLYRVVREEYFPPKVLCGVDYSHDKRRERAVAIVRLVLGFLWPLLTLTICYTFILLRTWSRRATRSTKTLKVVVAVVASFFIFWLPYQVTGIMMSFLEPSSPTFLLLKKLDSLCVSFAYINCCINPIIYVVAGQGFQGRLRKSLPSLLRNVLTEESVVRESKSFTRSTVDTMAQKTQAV
Protocol: The cDNA sequences of wild-type C5aR1 were cloned into the expression vector pcDNA3.1(+) with a HA signal sequence followed by a Flag tag at the N-terminus. Mutants used in our study were generated by using the Q5 site-Directed Mutagenesis kit (NEB). All the constructs were verified by sanger sequencing. The constructs were transiently expressed in HEK293 cells using PEI transfection reagent (YEASEN, 40816ES02) according to the manufacturer’s instruction. Cells were harvested 48 h post transfection. Cell surface expression levels of receptors were measured by enzyme-linked immunosorbent assay (ELISA).
To measure cAMP inhibition effects on the forskolin-induced cAMP accumulation of C5aR1, the GloSensor cAMP assay (Promega) was performed as described in the previous study.[59] Briefly, Flag-tagged wild-type human C5aR1 was co-expressed with GloSensor plasmid in HEK293 cells in 6-well culture plates. After at least 24 h, transfected cells were harvested and suspended in assay buffer Hank’s Balanced Salt Solution (HBSS) containing 10 mM HEPES, pH 7.4, with an additional 3% v/v dilution of the D-Luciferin-Potassium Salt (YEASEN, 40902ES01). […] Finally, the luminescence signals were counted on the Synergy H1 microplate reader (BioTek). […]

[2] = molecular target: T1, C5aR1-WT; assay: BRET assay measuring β-arrestin 2 recruitment; conditions: HEK293, BRET, mean±SEM
Protocol: Briefly, HEK293 cells were transiently transfected with C5aR1-Nluc and mVenus-β-arrestin 2 or C5aR2-mVenus and Nluc-β-arrestin 2 constructs using PEI transfection reagent (YEASEN, 40816ES02) according to the manufacturer’s instruction. At 24 h post transfection, the cells were gently detached and seeded (100,000/well) onto 96-well white plates in DMEM containing 5% FBS. On the next day, cells were washed once with Phosphate Buffered Saline (PBS) and incubated in HBSS containing 20 mM HEPES, pH 7.4, with coelenterazine h (5 μM, YEASEN, 40906ES02) for 1 h (37 °C, 5% CO2). […] We carried out the nonlinear regression (curve fit) dose-response function in GraphPad Prism 7 to yield the values of Emax and EC50.

[3] = molecular target: T2, C5aR1 E1995.35A (Homo sapiens, UniProt P21730, E199A); assay: BRET β-arrestin 2 recruitment; conditions: HEK293, BRET, mean±SEM, n=3, read-out: EC50, β-arrestin2 recruitment
T2 construct: expressed in transfected cells; host or cells: HEK293
T2 sequence (P21730 1-350 E199A): T1 sequence (P21730 1-350) with E199A
Protocol: (§1) The C5a-mediated β-arrestin 2 recruitment to C5aR1 and C5aR2, respectively, was measured using BRET-based assay as previously described.[36],[61],[62] Briefly, HEK293 cells were transiently transfected with C5aR1-Nluc and mVenus-β-arrestin 2 or C5aR2-mVenus and Nluc-β-arrestin 2 constructs using PEI transfection reagent (YEASEN, 40816ES02) according to the manufacturer’s instruction. At 24 h post transfection, the cells were gently detached and seeded (100,000/well) onto 96-well white plates in DMEM containing 5% FBS. On the next day, cells were washed once with Phosphate Buffered Saline (PBS) and incubated in HBSS containing 20 mM HEPES, pH 7.4, with coelenterazine h (5 μM, YEASEN, 40906ES02) for 1 h (37 °C, 5% CO2). The baseline BRET light emissions (460–485 nm and 520–545 nm) were monitored by the Synergy H1 microplate reader (BioTek). After the incubation of different diluted concentrations of agonist with or without antagonist for 10 min, the second BRET light emissions were measured and the ligand-induced BRET ratio was calculated by subtracting the acceptor (mVenus, 520–545 nm) over donor (Nluc, 460–485 nm) emission ratio of the vehicle-treated wells from that of the ligand-treated wells. We carried out the nonlinear regression (curve fit) dose-response function in GraphPad Prism 7 to yield the values of Emax and EC50.

[4] = molecular target: T3, C5aR1 R1754.64A (Homo sapiens, UniProt P21730, R175A); assay: BRET β-arrestin 2 recruitment; conditions: HEK293, BRET, mean±SEM, n=3, read-out: EC50, β-arrestin2 recruitment
T3 construct: expressed in transfected cells; host or cells: HEK293
T3 sequence (P21730 1-350 R175A): T1 sequence (P21730 1-350) with R175A
Protocol: as §1

EC50 [1]: 1.87 ± 0.43 nM
EC50 ([2]; C5aR1-WT, agonist 10 min, n=6, Table S3, read-out: EC50, β-arrestin2 recruitment): 14.8 ± 2.76 nM
EC50 ([2]; C5aR1 wild type, n=3, Table S5, read-out: EC50, β-arrestin2 recruitment): 40 ± 10 nM
EC50 [3]: 38.3 ± 7.94 nM
EC50 [4]: 47.8 ± 9.15 nM
B1: C5a: 74-amino-acid complement fragment, endogenous agonist; recombinant human C5a, free cysteine replaced by arginine (protein)
chain: TLQKKIEEIAAKYKHSVVKKCCYDGARVNNDETCEQRAARISLGPRCIKAFTECCVVASQLRANISHKDMQLGR
modifications: three intramolecular disulfides; non-glycosylated (E. coli); Trx-His6 tag removed with TEV
